Antibody variant affinities, Ab-14 heavy chain, assay B

Values reported by Li et al. 2023, doi:10.1038/s41467-023-39022-2 (FLAb copy).

All variants were tested on one target, the spike HR2 peptide PDVDLGDISGINAS (SARS-CoV-2).

Parent: Ab-14, a human scFv built as VH, a (GGGGS)3 linker, VL. Only the CDRs of the heavy chain vary.
VH: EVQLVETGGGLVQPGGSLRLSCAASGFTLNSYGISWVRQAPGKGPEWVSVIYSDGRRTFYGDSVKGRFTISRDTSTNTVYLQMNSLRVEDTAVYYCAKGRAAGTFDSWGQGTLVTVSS
VL: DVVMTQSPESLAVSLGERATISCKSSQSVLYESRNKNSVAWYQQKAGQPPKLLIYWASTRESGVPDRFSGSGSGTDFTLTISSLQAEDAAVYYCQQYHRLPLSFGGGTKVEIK

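The starting antibody came from a phage panning campaign against this peptide. The variants were designed computationally from a first round of random CDR variants and then made and measured. Group labels follow the data file (En: ensemble of fine-tuned language models; HC: hill climbing; Gen: genetic algorithm; Gibbs: Gibbs sampling; a sequence that several methods proposed may carry one label only). AlphaSeq pools MATa yeast showing the antibodies with MATalpha yeast showing the peptide. Binding brings cells together so that they mate, and sequencing counts the barcode pairs among the diploids. The ratio of observed to expected reads was calibrated, replicate by replicate, on BCL2-family standards whose Kd was known from biolayer interferometry. Each pool was mated in six replicate cultures.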

Each variant is given by its three heavy chain CDRs, as the data file delimits them; those of the parent are GFTLNSYGIS, VIYSDGRRTFYGDSVK, GRAAGTFDS.
Variants here have more than six changes.
The Kd shown is the geometric mean over detected replicates; a lower Kd is a better binder.
"nd" marks a missing value. The strain was present, yet no cells mated with the target were sequenced in any replicate, which points to weak or no binding.
The authors averaged sequences with at least three values out of six and counted those with two or fewer as poor binders.

For GFDLNEYGIS / VIYADGKRTSYVDSVK / GNVAGTFDV [En_Gen], the assay gave 910 pM (6 of 6 replicates). The variant GFNLDEYGIS / VIYADGMRTAYADSVK / GENAGTFDL [En_Gen] showed 1.1 nM (6 of 6 replicates). The variant GFDLNEYGIS / VIYADGRRTAYGDSVK / GTNAGTFDV [En_HC] showed 500 pM (6 of 6 replicates). For GFDLNEYGIS / VIYADGRRTAYSDSVK / GEVAGTFVN [En_HC], the assay gave 450 pM (6 of 6 replicates). For GFDLNEYGIS / VIYADGRRTFYSDSVK / GQTAGTFDT [En_HC], the assay gave 390 pM (6 of 6 replicates). The variant GFDLDEYGIS / VIYADGVRTAYADNVK / GEVAGTFDL [En_Gen] gave 570 pM (6 of 6 replicates). For GFDLNEYGIS / VIYADGMRTSYDDSVK / GQLAGTFDQ [En_HC], the assay gave 710 pM (5 of 6 replicates). The variant GFDLEEYGIS / VIYADGRRTFYADSVK / GENAGTFDV [En_HC] gave 1.1 nM (6 of 6 replicates). With GFNLNEYGIS / VIYADGNRNAYANSFK / GLHANFFII [En_Gibbs] the result was nd (0 of 6 replicates).

With GFDLGEYGIS / VIYADGRRKAYSDAVK / GIHVYGKTV [En_Gibbs] the result was nd (0 of 6 replicates). The variant GFDLNEYGIS / VIYADGMRTFYADDVK / GENAGTFDQ [En_Gen] gave 200 pM (6 of 6 replicates). The variant GFDLDEYGIS / VIYADGMRTAYSDSVK / GTNAGTFDQ [En_Gen] gave 210 pM (6 of 6 replicates). For GFDLNEYGIS / VIYADGVRTAYADSVK / GENGGTFDV [En_Gen], the assay gave 2.3 nM (6 of 6 replicates). With GFDLNEYGIS / VIYADGRRTVYADSVK / GNNAGTFIS [En_HC] the result was 280 nM (5 of 6 replicates). The variant GFDLNEYGIS / VIYADGRRTAYSDSVK / GEVAGTFDS [En_HC] gave 390 pM (6 of 6 replicates). The variant GFDLNEYGIS / VIYADGRRTAYIDSVK / GEVAGTFDQ [En_HC] showed 380 pM (6 of 6 replicates). For GFDLEEYGIS / VIYADGTRTMYLPTVK / GVNGGTFQM [En_Gibbs], the assay gave nd (0 of 6 replicates). With GFKLDEYGIS / VIYADGLRMHYANAVK / GEGAGTFTT [En_Gibbs] the result was 360 nM (4 of 6 replicates).

The variant GFNLNEYGIS / VIYADGRRTFYTDDVK / GELAGTFDL [En_HC] showed 240 pM (6 of 6 replicates). For GFDLNEYGIS / VIYADGMRTAYADDVK / GNTAGTFDT [En_Gen], the assay gave 610 pM (6 of 6 replicates). With GFDLNEYGIS / VIYADGMRTAYSDSVK / GETAGTFDV [En_Gen] the result was 230 pM (6 of 6 replicates). The variant GFDLNEYGIS / VIYADGVRTSYADDVK / GNVAGTFDL [En_Gen] showed 460 pM (6 of 6 replicates). The variant GFDLNEYGIS / VMYADGSRRVYQDKVK / GFQSGTFDT [En_Gibbs] showed 500 pM (6 of 6 replicates). The variant GKDLQEYGIS / VIYADGKREQYAGSVK / GGLTGQFTV [En_Gibbs] showed nd (0 of 6 replicates). With GFDLNEYGIS / VIYADGQRKAYADSVK / GTNAGTFDV [En_Gen] the result was 430 pM (6 of 6 replicates). The variant GFDLNEYGIS / VIYADGMRTYYADNVK / GNVAGTFDV [En_Gen] gave 180 pM (6 of 6 replicates). The variant GFDLEDYGIS / VIYADGMRTAYSDSVK / GNVAGTFDI [En_Gen] showed 320 pM (6 of 6 replicates).

For GFVLQEYGIS / VIYADGMRTAYAEDFK / GVTGVNLHI [En_Gibbs], the assay gave nd (0 of 6 replicates). For GFDLDEYGIS / VIYADGQRTAYSDSVK / GSNAGTFDV [En_Gen], the assay gave 190 pM (6 of 6 replicates). With GFDLNEYGIS / VIYADGKRTAYIDSVK / GNVAGTFDL [En_Gen] the result was 240 pM (6 of 6 replicates). For GFDLNEYGIS / VIYADGQRTAYTDSVK / GEVAGTFDL [En_Gen], the assay gave 46 pM (5 of 6 replicates). For GFDLNEYGIS / VIYADGMRTAYSDDVK / GTNAGTFDI [En_Gen], the assay gave 450 pM (6 of 6 replicates). The variant GFDLNEYGIS / VIYADGVRTAYTDSVK / GNNAGTFDV [En_Gen] showed 66 pM (6 of 6 replicates). The variant GFELEEYGIS / VIYADGQRTFYADNVK / GKVDTVVHY [En_Gibbs] showed 790 pM (6 of 6 replicates). The variant GFQIDEYGIS / VIYADGKRSGYKNSVK / GNFNVSGSV [En_Gibbs] gave nd (0 of 6 replicates). The variant GFDLDEYGIS / VIYADGKRTFYSDSVK / GETAGTFDV [En_HC] showed 1.1 nM (6 of 6 replicates).

The variant GFDLNEYGIS / VIYADGLRTAYADSVK / GNVAGTFDQ [En_Gen] gave 530 pM (6 of 6 replicates). For GFDLNEYGIS / VIYADGRRTFYADSVK / GQLAGTFVV [En_HC], the assay gave 2.9 nM (6 of 6 replicates). With GFDLNEYGIS / VIYADGLRTAYTDSVK / GNVAGTFDI [En_Gen] the result was 21 pM (6 of 6 replicates). For GFNLDEYGIS / VIYADGMRTAYTDSVK / GNVAGTFDV [En_Gen], the assay gave 570 pM (6 of 6 replicates). The variant GFDLNEYGIS / VIYADGMRSYYADSVK / GNVAGTFDQ [En_Gen] showed 770 pM (6 of 6 replicates). With GFDLDEYGIS / VIYADGMRTAYSDSVK / GGVAGTFDV [En_Gen] the result was 670 pM (6 of 6 replicates). For GFDLNEYGIS / VIYADGMRTFYADSVK / GQVAGTFSV [En_HC], the assay gave 190 pM (6 of 6 replicates). The variant GFDLNEYGIS / VIYADGVRTAYIDSVK / GNVAGTFDI [En_Gen] gave nd (0 of 6 replicates). The variant GFDLNEYGIS / VIYADGMRTAYSDSVK / GEVAGTFDA [En_Gen] gave 220 pM (6 of 6 replicates).

For GFDLNEMGIS / VIYADGDRKKYQDAVK / GDVSGDFDE [En_Gibbs], the assay gave nd (0 of 6 replicates). The variant GFDLNEYGIS / VIYADGMRTAYSDSVK / GGNAGTFDM [En_Gen] gave 170 pM (6 of 6 replicates).

Values of this round are not directly comparable with the first-round values of the same sequences.
The parent sequence was in this pool as ten entries: three were never detected, three once, and four in most replicates, with averages from 2.2 nM to 240 nM.
As a blank, each scFv also met three strains without target: over all heavy chain designs, 1% of these pairings were detected, typically at 120 nM and seldom below 7.0 nM.